Earlier results on 1 substance are cited in patent US20240285702A1, “Compositions comprising a cannabinoid and uses thereof” (Cannabotech Ltd., priority 2021, published 2024).

The conditions of this data set: at 37° C.

With “D-α-tocopheryl polyethylene glycol 1000 succinate [TPGS]”, the “critical micelle concentration (CMC)” value is reported as 0.02 weight %.
